Literature values in patent publication US7945392B2, “Methods and systems for drug screening and computational modeling based on biologically realistic neurons” (McLean Hospital Corporation, priority 2005, dated 2011).

Conditions: reasonable value, from Tran et al. 2000; cited from earlier work

Cc1cc2c(s1)Nc1ccccc1N=C2N1CCN(C)CC1 [olanzapine]
free concentration (corrected for binding to plasma proteins): 27 nM
